# Target: human recombinant MOR (Homo sapiens, UniProt P35372)
# Chains of the proteins cited; added tags and fusions are not shown.
# UniProt P35372, whole entry: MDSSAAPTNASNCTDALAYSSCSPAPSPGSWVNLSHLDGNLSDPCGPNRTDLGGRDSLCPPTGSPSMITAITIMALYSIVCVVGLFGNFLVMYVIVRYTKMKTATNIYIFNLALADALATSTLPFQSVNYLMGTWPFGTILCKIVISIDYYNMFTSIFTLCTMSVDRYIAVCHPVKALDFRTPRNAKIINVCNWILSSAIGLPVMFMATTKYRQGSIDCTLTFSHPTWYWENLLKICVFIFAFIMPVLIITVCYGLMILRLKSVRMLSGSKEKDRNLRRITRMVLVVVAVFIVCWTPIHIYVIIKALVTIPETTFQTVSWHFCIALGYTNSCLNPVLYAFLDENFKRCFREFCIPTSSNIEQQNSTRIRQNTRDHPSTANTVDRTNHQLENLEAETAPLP
# Assay: μ-Opioid receptor binding, [3H]DAMGO displacement
# Details: for Mu % inhibition: inhibition at 100 nM, NI = no inhibition; for Ki: read-out: Mu Ki
Structure (SMILES),Mu % inhibition,Ki,fold more potent affinity to MOR (compound 39 vs unsubstituted parent compound 23),fold improvement of binding affinity to MOR (compound 25 compared to compound 24)
O=c1[nH]c2cccc3c2n1[C@H]1CCN(CCCOc2ccc(F)cc2)C[C@@H]31,(24%),–,–,–
O=C1CN2c3c(cccc3[C@@H]3CN(CCCCc4ccc(F)cc4)CC[C@@H]32)N1,88%,4.1 nM,–,–
"O=C1CN2c3c(cccc3[C@@H]3CN(CCCOc4ccc(F)c(F)c4)CC[C@@H]32)N1 [compound 39, (6bR,10aS)-8-(3-(3,4-Difluorophenoxy)propyl)-6b,7,8,9,10,10a-hexahydro-1H-pyrido[3′,4′:4,5]pyrrolo-[1,2,3-de]quinoxalin-2(3H)-one]",(91%),–,about 11 fold,–
O=C1CN2c3c(cccc3[C@@H]3CN(CCCOc4ccc(Cl)cc4)CC[C@@H]32)N1,–,7.3 nM,–,–
Cn1nc(CCCN2CC[C@H]3[C@@H](C2)c2cccc4c2N3CC(=O)N4)c2ccc(F)cc21,–,7.1 nM,–,approximately 5 fold
